Series [1] is described as follows: Equilibrium surface tension, Kruss K-12 tensiometer with platinum Wilhelmy plate. Particulars: 25±1° C. Type of series: physicochemical. As for the experimental part:
Equilibrium surface tensions were determined using a Kruss K-12 tensiometer with a platinum Wilhelmy plate, maintaining the temperature at 25±1° C. by means of a constant temperature circulating bath.

The nature of series [2]: Dynamic surface tension, maximum bubble pressure method. Type of series: physicochemical. As for the experimental part: Solutions in distilled and deionized water of the surfactants of the invention were prepared. […] In a practical sense, high surface creation rates refer to rapid processes such as a spray or roller-applied coating, a high speed printing operation, or the rapid application of an agricultural product or a cleaner.

The record followed here is US20060013780A1, “N,N'-dialkyl derivatives of polyhydroxyalkyl alkylenediamines” (priority 2004, published 2006).

As to “N,N′-dioctyl-N,N′-bis(1-deoxyglucityl)ethylenediamine [DODGEDA]”, the “EST (0.01 WT %, mN/m)” value in series [1] (0.01 wt % in water) is reported as 30 mN/m. Besides, the “EST (0.1 WT %, mN/m)” value in series [1] (0.1 wt % in water) is on record as 27 mN/m. Moreover, the “EST (1.0 WT %, mN/m)” value in series [1] (1.0 wt % in water) came out at 27 mN/m. Also, in series [2] (0.1 wt % in distilled and deionized water, 0.1 bubbles/sec), the “DST (0.1 WT %, mN/m) 0.1 b/s” value is reported as 31 mN/m. Further, in series [2] (0.1 wt % in distilled and deionized water, 10 bubbles/sec), the “DST (0.1 WT %, mN/m) 10 b/s” value was found to be 70 mN/m. Besides, in series [2] (0.5 wt % in distilled and deionized water, 0.1 bubbles/sec), the “DST (0.5 WT %, mN/m) 0.1 b/s” value is 38 mN/m. For the same substance, the “DST (0.5 WT %, mN/m) 10 b/s” value in series [2] (0.5 wt % in distilled and deionized water, 10 bubbles/sec) is on record as 62 mN/m.
